Biological target: T1, CMH-1 (Homo sapiens, UniProt P55210)
T1 construct: we expressed an N-terminal (His)6-tagged CMH-1(Ala24-Gln303) in E. coli; made in house; host or cells: E. coli BL21(DE3), pET-15b
T1 sequence (P55210 24-303): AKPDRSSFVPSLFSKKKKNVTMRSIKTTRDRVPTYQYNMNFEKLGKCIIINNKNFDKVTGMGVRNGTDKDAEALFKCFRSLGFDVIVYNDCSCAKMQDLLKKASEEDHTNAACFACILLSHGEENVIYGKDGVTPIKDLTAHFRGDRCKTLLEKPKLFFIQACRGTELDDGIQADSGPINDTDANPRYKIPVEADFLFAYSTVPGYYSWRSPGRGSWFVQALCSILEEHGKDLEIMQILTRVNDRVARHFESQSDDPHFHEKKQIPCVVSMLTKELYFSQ
T1 sequence (P55210 199-303): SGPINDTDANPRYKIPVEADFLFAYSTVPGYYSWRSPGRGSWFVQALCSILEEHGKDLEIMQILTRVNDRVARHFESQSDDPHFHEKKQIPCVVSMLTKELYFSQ
Test: Inhibition of in vitro cleavage of 35S-labelled PARP by CMH-1 (SDS-PAGE and fluorography)
Format: biochemical
Conditions: 35S-labelled PARP as substrate, Fig. 4, panel B
Procedure: In order to determine the activity of purified CMH-1, we determined whether the protein could cleave ^35[S]-labeled pro-IL-1b and PARP and compared its cleavage activity to purified ICE. We prepared ^35[S]-labeled PARP and IL-1b precursor (pro-IL-1b) by in vitro transcription and translation. Cleavage experiments were carried out as described previously [Y. Gu et al., J. Biol. Chem. (1995)]. Cleavage products were analyzed by SDS-PAGE and fluorography as described in that reference.
This was consistent with the relative sequence identity between CPP32 and cmh-1.

DEVD-CHO
inhibition of the cleavage activity of CMH-1: inhibited
